Data on one substance can be found in US20060204596A1, “Formulation of a mixture of Free-B-Ring flavonoids and flavans as a therapeutic agent” (Unigen Pharmaceuticals, Inc., priority 2005, published 2006).

Protein sequences, listed by entry. Tags and fused reporters are not part of them. Residues count along the entry.
UniProt P23219, 24-599: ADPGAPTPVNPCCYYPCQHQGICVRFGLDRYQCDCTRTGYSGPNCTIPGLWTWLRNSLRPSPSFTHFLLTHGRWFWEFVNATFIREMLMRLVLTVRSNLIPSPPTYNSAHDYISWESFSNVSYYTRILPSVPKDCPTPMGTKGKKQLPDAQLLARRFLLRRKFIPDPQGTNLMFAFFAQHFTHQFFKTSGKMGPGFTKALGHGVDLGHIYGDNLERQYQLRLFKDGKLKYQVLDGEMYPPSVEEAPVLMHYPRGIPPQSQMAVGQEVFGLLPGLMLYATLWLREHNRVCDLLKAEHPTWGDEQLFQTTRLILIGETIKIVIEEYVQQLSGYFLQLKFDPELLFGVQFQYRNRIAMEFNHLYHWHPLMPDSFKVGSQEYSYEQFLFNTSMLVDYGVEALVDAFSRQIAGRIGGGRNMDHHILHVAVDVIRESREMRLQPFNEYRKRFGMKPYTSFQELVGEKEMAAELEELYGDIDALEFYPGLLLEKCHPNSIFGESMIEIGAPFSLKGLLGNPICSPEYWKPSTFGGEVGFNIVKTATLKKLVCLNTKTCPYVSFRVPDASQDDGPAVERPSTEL

For series [1] the following is noted: in vivo; cited from earlier work.
The nature of series [2]: stress test of pure catechin under varying conditions. The series is classed as physicochemical. The text has this:
[…]. However, it can be preserved by a number of preservatives, including but not limited to stannous chloride (SnCl2), sodium bisulfate/metabisulfite (SBS), and other preservatives.

The next series has as its target COX-1 (Homo sapiens, UniProt P23219). Briefly: COX-1 enzymatic inhibition. The series is classed as biochemical.

Turning to catechin, the half-life (as a rule, the time in which the quantity being followed falls by half) in series [1] was 2 h. The “stability under basic conditions or when exposed to metal ions” value in series [2] (basic conditions or metal ions such as Fe3+) is listed as “not”. Also, in series [2] (neutral conditions at both 4° C. and 40° C.), the “stability under neutral conditions” value was “stable”. For the same substance, the “stability under weakly basic conditions” value in series [2] (pH=7.5) is “decomposes”. The “IC50 for COX-1” value against COX-1 was 0.11 μg/mL/unit of enzyme.
